Assay results as given in article PMC11945487 (Viruses, 2025).
Like-named read-outs stand apart in the source and are kept apart here.

Assays:
SARS-CoV-2 M^pro [1] = target: T1, SARS-CoV-2 M^pro (Severe acute respiratory syndrome coronavirus 2, UniProt P0DTD1); assay: FRET-based enzymatic activity assay; assay type: biochemical
SARS-CoV-2 M^pro [2] = target: T1, SARS-CoV-2 M^pro; assay: biochemical; assay type: binding
SARS-CoV-2 M^pro [3] = target: T1, SARS-CoV-2 M^pro; assay: biochemical; assay type: binding; remark: listed apart in the source

COc1cc2ccc(=O)oc2cc1O [Scopoletin, 6-methoxy-7-hydrocoumarian]
IC50 (SARS-CoV-2 M^pro [1]): 15.8 µM
KA (SARS-CoV-2 M^pro [2]): 2360 M⁻¹
Kd (SARS-CoV-2 M^pro [2]): 424 µM
Kd (SARS-CoV-2 M^pro [3]): 31.5 µM
